{
  "sequences": {"note": "Protein sequences, listed by entry. Tags and fused reporters are not part of them. Lines headed by an entry give the natural chain unless they say otherwise; changes in a name come on top.", "UniProt Q01726": "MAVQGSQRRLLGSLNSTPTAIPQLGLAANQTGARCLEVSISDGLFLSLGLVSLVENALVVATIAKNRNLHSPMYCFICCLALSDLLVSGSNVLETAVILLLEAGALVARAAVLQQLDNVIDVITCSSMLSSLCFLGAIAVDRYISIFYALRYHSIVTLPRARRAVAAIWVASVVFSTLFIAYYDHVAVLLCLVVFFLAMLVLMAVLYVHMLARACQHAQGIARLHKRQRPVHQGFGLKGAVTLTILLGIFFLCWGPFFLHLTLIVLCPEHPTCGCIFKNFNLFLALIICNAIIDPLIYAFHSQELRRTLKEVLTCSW"},
  "source": "patent US6602856B1",
  "about": "“Antagonists of alpha-melanocyte stimulating hormone and methods based thereon” (priority 1995, dated 2003)",
  "target": "T1, human melanoma MSH receptor (Homo sapiens, UniProt Q01726)",
  "T1 construct": "expressed in transfected cells; host or cells: Xenopus fibroblasts, electroporated with pcDNAI/NEO carrying the receptor cDNA",
  "experiment": "cAMP in Xenopus fibroblasts transfected with human melanoma MSH receptor",
  "format": "cell-based",
  "conditions": "dWRL 10 μM; 5 nM α-MSH; relative to MSH alone",
  "procedure": "Control=no additional drugs. MSH=5 nM α-MSH. dWRL concentration was 10 μM. Forskolin=100 μM forskolin (7β-desacetyl-7β-[g-(N-methylpiperazino)-butyryl; from Calbiochem).\nXenopus fibroblasts (Daniolos, et al., 1990, Pigment Cell Res 3, 38-43) were transfected with “Vector alone” (pcDNAI/NEO, Invitrogen) or with “HMelMSHR” (pcDNAI/NEO containing a human melanoma MSH receptor insert (Mountjoy et al., 1992, Science 257, 1248-1251; kind gift from Roger Cone). Control=no additional drugs. MSH=5 nM μM α-MSH. The dWRL concentration was 10 μM. Forskolin=100 μM forskolin (7β-desacetyl-7β-[g-(N-methylpiperazino)-butyryl; from Calbiochem).\nTransfections were performed by electroporation (≈5×10^−1 cells per 400 μL in 70% phosphate-buffered saline, pH 7.0, plus 10 μg of test cDNA) using 0.2 cm cuvettes in a BTX ECM-600 (475 V, 720 ohm, and 400 μF). 48 hr after transfection, confluent cells, plated in 12-well tissue culture plates (Falcon), were rinsed for 1 hr with 70% L-15 medium (Sigma) containing 0.5% bovine serum albumin (BSA) (Sigma), and again for 5 min with added 0.5% bovine serum albumin (BSA) (Sigma), and again for 5 min with added 0.5 mM IBMX (3-isobutyl-1-methlylxanthine; from Aldrich). Test drugs were then added with IBMX present for 45 min and intracellular cAMP extracted with 1 ml of 60% ethanol per well. cAMP from cAMP-binding protein (21; Kit from Amersham). […]",
  "note": "“Also recorded” adds a separate entry of the source.",
  "data": [
    {"smiles": "CC(C)C[C@H](NC(=O)[C@H](CCCNC(=N)N)NC(=O)[C@H](N)Cc1c[nH]c2ccccc12)C(N)=O", "note": "[A1, D-Trp-Arg-Leu-NH2]", "values": [
      {"measurement": "inhibition of cAMP formation in hMel MSHR transfected cells", "result": "functional antagonism; also recorded: significantly inhibits"}
    ]}
  ]
}
